Assay results taken from ChEMBL document CHEMBL1127305, “kappa Opioid receptor selective affinity labels: electrophilic benzeneacetamides as kappa-selective opioid antagonists” (J Med Chem, 1994).

Amino acid sequences for entries named in this document (tags omitted). A change or cut given only in a name is not applied to a line headed by its entry.
UniProt P33534: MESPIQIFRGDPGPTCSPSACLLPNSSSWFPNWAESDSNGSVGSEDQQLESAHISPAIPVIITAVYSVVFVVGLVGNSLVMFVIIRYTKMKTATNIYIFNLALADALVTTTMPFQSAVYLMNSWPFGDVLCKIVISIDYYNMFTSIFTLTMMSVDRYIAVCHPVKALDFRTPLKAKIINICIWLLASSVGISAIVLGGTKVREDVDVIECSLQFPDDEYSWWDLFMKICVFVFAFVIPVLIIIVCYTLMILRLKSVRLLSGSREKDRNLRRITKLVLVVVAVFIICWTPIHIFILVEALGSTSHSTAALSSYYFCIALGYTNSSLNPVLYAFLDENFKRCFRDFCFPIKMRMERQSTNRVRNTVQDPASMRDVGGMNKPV
UniProt P42866, whole entry, looked up: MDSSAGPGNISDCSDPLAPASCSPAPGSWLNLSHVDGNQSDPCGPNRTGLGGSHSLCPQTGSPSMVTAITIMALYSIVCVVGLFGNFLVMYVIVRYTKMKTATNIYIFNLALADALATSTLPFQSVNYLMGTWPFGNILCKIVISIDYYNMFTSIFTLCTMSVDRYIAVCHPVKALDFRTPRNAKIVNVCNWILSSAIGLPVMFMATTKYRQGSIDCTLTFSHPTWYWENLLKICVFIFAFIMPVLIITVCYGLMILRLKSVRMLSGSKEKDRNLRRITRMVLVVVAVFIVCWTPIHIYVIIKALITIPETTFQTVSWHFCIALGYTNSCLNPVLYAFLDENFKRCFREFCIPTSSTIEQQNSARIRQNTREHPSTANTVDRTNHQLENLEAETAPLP
UniProt P32300, whole entry, looked up: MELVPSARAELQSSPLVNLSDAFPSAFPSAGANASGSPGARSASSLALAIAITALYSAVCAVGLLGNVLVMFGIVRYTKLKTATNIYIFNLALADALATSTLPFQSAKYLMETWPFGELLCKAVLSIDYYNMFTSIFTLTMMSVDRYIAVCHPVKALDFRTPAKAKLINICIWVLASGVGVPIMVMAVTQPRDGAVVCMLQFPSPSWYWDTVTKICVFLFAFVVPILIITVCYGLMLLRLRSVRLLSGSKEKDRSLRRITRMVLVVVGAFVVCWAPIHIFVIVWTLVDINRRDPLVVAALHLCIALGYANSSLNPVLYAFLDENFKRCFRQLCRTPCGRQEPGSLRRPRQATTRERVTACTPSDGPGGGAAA
UniProt P41144: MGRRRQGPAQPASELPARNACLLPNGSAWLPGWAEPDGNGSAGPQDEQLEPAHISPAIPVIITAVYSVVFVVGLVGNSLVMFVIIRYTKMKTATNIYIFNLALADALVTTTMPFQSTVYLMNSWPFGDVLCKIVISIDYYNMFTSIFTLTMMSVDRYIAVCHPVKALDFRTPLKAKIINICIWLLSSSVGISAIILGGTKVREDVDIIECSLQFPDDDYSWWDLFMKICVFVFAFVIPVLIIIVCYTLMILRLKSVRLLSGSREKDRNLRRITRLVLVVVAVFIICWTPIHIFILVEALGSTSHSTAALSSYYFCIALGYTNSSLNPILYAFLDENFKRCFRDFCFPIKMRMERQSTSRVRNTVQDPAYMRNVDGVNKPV

Assays:
[1] = organism: Cavia porcellus; assay: Tested for wash-resistant activity after forty post-washes (for removal of naltrexone) with Kreb's buffer pre-incubated with compound; type: functional, organism-based
Method in brief: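 Agonist-treated guinea pig ileal longitudinal muscle was washed, then incubated with naltrexone (500 nM) for 15 min. A further forty washes with Krebs' buffer followed. Read-out was percent recovery of twitch height.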

[2] = organism: Cavia porcellus; assay: Tested for wash-resistant activity by incubating guinea pig ileal longitudinal muscle (pre-treated with the compound) with nor BNI (20 nM). Number of determinations, n=3; settings: Muscle tissue
[3] = organism: Cavia porcellus; assay: Tested for wash-resistant activity after forty post-washes (for removal of nor BNI) with Kreb's buffer pre-incubated with compound
[4] = molecular target: Kappa-type opioid receptor (Mus musculus) (UniProt P33534); assay: Agonist selectivity for kappa opioid receptor in the naltrindole-treated mice. Subcutaneous dose of 12.25 umol/kg of norBNI was administered
[5] = molecular target: Mu-type opioid receptor (Mus musculus) (UniProt P42866); assay: Agonist selectivity for mu opioid receptor in the beta-funaltrexamine-treated mice Subcutaneous dose of 20.36 umol/kg of beta-FNA was administered
[6] = molecular target: Delta-type opioid receptor (Mus musculus) (UniProt P32300); assay: Agonist selectivity for delta opioid receptor in the naltrindole-treated mice Subcutaneous dose of 44.44 umol/kg of naltrindole was administered
[7] = molecular target: Kappa-type opioid receptor (Mus musculus) (UniProt P33534); assay: Agonist selectivity for kappa opioid receptor in the naltrindole-treated mice subcutaneous dose of 12.25 umol/kg of norBNI was administered
[8] = molecular target: Delta-type opioid receptor (Mus musculus) (UniProt P32300); assay: Antagonist selectivity for delta opioid receptor in treated mice at(sc) dose of 16 umol/kg, DPDPE was injected subcutaneously, at 20 min peak time by Mouse tail-flick assay
[9] = molecular target: Mu-type opioid receptor (Mus musculus) (UniProt P42866); assay: Antagonist selectivity of mu opioid receptor in treated mice to that of control at subcutaneous dose of 16 umol/kg, morphine was injected subcutaneously, at 30 min peak time by Mouse tail-flick assay
[10] = molecular target: Mu-type opioid receptor (Mus musculus) (UniProt P42866); assay: Agonist selectivity for mu opioid receptor in the beta-funaltrexamine-treated mice subcutaneous dose of 20.36 umol/kg of beta-FNA was administered
[11] = molecular target: Delta-type opioid receptor (Mus musculus) (UniProt P32300); assay: Agonist selectivity for delta opioid receptor in the naltrindole-treated mice subcutaneous dose of 44.44 umol/kg of naltrindole was administered
[12] = molecular target: Kappa-type opioid receptor (Mus musculus) (UniProt P33534); assay: Antagonist selectivity of kappa opioid receptor in treated mice at subcutaneous dose of 16 umol/kg, morphine was injected subcutaneously, at 20 min peak time by Mouse tail-flick assay
[13] = molecular target: Kappa-type opioid receptor (Cavia porcellus) (UniProt P41144); assay: Bmax for kappa opioid receptor in guinea pig brain membranes [3H]U-69593 as radioligand; settings: Membrane
[14] = organism: Cavia porcellus; assay: Tested for wash-resistant activity by incubating guinea pig ileal longitudinal muscle (pre-treated with the compound) with nor BNI (20 nM).Number of determinations, n=3; settings: Muscle tissue

CN(C(=O)Cc1ccc(Cl)c(Cl)c1)[C@H](CN1CCCC1)c1ccccc1 [ICI-199,441]
Recovery [1]: 32%
Recovery [2]: 91%
Recovery [3]: 32%

COC(=O)/C=C/C(=O)Nc1cccc([C@@H](CN2CCCC2)N(C)C(=O)Cc2ccc(Cl)c(Cl)c2)c1
ED50 ratio [4]: 9.09
ED50 ratio [5]: 2.08
ED50 ratio [6]: 1.02

CN(C(=O)Cc1ccc(Cl)c(Cl)c1)[C@H](CN1CCCC1)c1ccc(N=C=S)cc1
ED50 ratio [7]: 2.78
ED50 ratio [8]: 1.2
ED50 ratio [9]: 3.1
ED50 ratio [10]: 0.78
ED50 ratio [11]: 0.48
ED50 ratio [12]: 4.8

CN(C(=O)Cc1ccc(Cl)c(Cl)c1)[C@H](CN1CCCC1)c1cccc(N=C=S)c1
Bmax [13]: 3.55 fM/mg
Recovery [14]: 77%
Recovery [3]: 35%
